This assay has as its target human orexin 2 receptors (Homo sapiens (Human), UniProt O43614). Put plainly: Radioligand Binding Assay I ([125I]orexin A competition, cell membranes). The note with it: read-out: binding I hOx2R Kd. The method, then:
Radioligand Binding Assay I
For crude cell membrane preparations, cells (CHO, Chinese hamster ovary or HEK, human embryonic kidney) expressing human orexin 1 or human orexin 2 receptors, were washed with HEPES (10 mM, pH 7.5), scraped off the culture plates with the same buffer, and centrifuged at 4° C. for 5 min at 2500×g. The cell pellet was either stored at −80° C. or used directly. Before the experiments, cell membranes were re-suspended in binding assay buffer (10 mM HEPES, 0.5% (w/v) bovine serum albumin, pH 7.5) by homogenisation with a Polytron homogeniser at 50 Hz for 20 s. Cell membranes were also used as made available by commercial providers.
In initial saturation experiments (to calculate Bmax), cell homogenates (150 μl) were incubated with 25-300 pM of the radioligand ([^125I]orexin A, 50 μl), 8 concentrations in triplicates in the presence or absence Orexin A (1 μM, 50 μl) to define non specific binding. Bound radioactivity was measured, and data were analysed with the program XLFIT or Graphpad Prism. Protein concentration was determined according to the Bradford/BioRad Protein Assay Kit. […]

Sequences of proteins named here, by UniProt entry; tags and fusion partners are left off.
UniProt O43614, whole entry: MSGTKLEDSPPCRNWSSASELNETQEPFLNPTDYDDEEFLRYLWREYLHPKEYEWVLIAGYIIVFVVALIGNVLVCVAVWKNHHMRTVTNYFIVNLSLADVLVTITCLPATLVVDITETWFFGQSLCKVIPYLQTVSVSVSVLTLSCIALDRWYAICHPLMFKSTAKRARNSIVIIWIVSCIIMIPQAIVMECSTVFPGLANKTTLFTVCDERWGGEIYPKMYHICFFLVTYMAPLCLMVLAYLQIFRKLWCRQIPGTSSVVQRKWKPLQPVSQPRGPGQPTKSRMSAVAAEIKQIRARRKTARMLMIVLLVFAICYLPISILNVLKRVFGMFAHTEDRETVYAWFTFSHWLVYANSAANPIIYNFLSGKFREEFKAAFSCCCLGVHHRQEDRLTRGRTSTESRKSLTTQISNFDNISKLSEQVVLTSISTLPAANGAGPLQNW

Structures are written as SMILES.

The Kd is the free concentration of one partner at which half of the binding sites on the other are occupied at equilibrium, for simple one-to-one binding. `Cc1n[nH]c(C)c1[C@H](C)NC(=O)COc1cc(C(F)(F)F)c2c(-c3ccccc3)nn(C)c2n1` [Example 1.6, (S)—N-(1-(3,5-dimethyl-1H-pyrazol-4-yl)ethyl)-2-(1-methyl-3-phenyl-4-(trifluoromethyl)-1H-pyrazolo[3,4-b]pyridin-6-yloxy)acetamide]: the Kd turned out to be 8 nM.

Source of the values: patent US8742106B2 (Novartis AG, priority 2009, dated 2014).
